Assay: CNS penetration across the blood brain barrier
Type: in vivo, mice
Method: Mice are dosed with compounds. Brain to blood ratios are determined by HPLC and LC/MS/MS analysis following oral administration of the test compounds in mice.

Ibogaine
Crossing of the BBB / concentration in brain: cross the BBB and reach micromolar concentrations in brain
